Here are results for 2 compounds from US4442090A, “Absorption-promoting compounds, compositions thereof with pharmaceuticals and/or bases for rectal administration and method of use” (Kyoto Yakuhin Kogyo Kabushiki Kaisha, priority 1980, dated 1984).

Data set [1] is described as follows: Urinary excretions of β-lactam antibiotics after rectal suppository (rabbit). In kind it is in vivo. To be noted: Cefotaxime 125 mg (potency), Compound (I) 5%, Witepsol H-15. On the procedure: The absorption into the circulation through the rectum of the rectal suppositories thus prepared was determined by measuring urinary excretion of the pharmacologically-active substance.
Thus, Sarcina lutea and Bacillus subtilis were used as assay organisms for penicillins and cephalosporins, respectively, and the assays were performed by the paper disk method (cultivation at 37° C. for from 15 to 20 hours).

Data set [2] in a line: Urinary excretions of aminoglycoside antibiotics after rectal suppository (rabbit). To be noted: Kanamycin sulfate 125 mg (potency), Compound (I) 5%, Witepsol H-15.

Turning to “Polyoxyethylene stearyl ether carboxylic acid (with 6 moles of ethylene oxide) [Compound 9-Na]”, in data set [1], the “Urinary excretions (%) 0-2 hr.” value came out at 30.9%, the “Urinary excretions (%) 2-4 hr.” value came to 12.2%, the “Urinary excretions (%) 4-6 hr.” value is 1.5% and the “Urinary excretions (%) Total (0-6 hr.)” value stood at 44.6%.
For the compound `CCCCOc1ccc(C(=O)O)cc1` [Compound 3-Na, p-Butoxybenzoic acid], the “Urinary excretions (%) 2-4 hr.” value in data set [2] is 12.2%.
